Structures are written as SMILES.

Protein sequences, listed by entry. Tags and fused reporters are not part of them. Residues count along the entry.
UniProt Q9Y5Y6, 596-855 limits assumed: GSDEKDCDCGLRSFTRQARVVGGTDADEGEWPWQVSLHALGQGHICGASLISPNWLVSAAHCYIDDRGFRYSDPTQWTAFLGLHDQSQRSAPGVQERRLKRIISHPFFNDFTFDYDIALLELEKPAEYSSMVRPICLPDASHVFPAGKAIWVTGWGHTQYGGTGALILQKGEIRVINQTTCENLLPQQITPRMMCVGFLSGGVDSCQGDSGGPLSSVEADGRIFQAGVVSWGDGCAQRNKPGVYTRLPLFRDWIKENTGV

Here are results for 1 molecule from patent US9365853B2, “Matriptase inhibitors and uses thereof against orthomyxoviridae infections” (priority 2011, dated 2016).

The assay deals with Recombinant purified human matriptase (amino acids 596-855) (Homo sapiens (Human), UniProt Q9Y5Y6). Nature of the assay: biochemical.

Broadly, the IC50 is the midpoint of a concentration-inhibition curve. As to `C[C@H](NC(=O)[C@H](CCC(N)=O)NC(=O)[C@@H](N)CCCNC(=N)N)C(=O)N[C@@H](CCCNC(=N)N)C(=O)c1nc2ccccc2s1` [Compound 1, RQAR-ketobenzothiazole], the IC50 was around 29 nM.
